From ChEMBL document CHEMBL1150979, “DERIVATIVES OF 4-AMINO-PYRIDINE AS SELECTIVE THROMBIN INHIBITORS” (Bioorg Med Chem Lett, 1997)

The chains behind the UniProt entries cited, without tags or fusion partners. Residues count along the entry.
UniProt P00747, 97-580 limits assumed: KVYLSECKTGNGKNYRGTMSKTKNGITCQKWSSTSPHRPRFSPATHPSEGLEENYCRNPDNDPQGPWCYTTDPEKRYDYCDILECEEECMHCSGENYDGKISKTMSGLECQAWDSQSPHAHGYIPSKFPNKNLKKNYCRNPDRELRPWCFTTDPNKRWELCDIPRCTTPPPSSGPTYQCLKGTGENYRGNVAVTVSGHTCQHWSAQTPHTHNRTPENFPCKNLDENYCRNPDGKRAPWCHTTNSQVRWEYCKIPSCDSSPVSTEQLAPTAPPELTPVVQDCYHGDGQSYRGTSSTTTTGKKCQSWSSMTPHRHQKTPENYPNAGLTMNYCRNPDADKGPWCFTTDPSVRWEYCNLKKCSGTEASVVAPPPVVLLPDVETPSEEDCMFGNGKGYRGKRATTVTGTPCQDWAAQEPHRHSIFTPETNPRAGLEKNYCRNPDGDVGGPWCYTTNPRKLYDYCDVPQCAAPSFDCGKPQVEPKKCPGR
UniProt P00747, 581-810 limits assumed: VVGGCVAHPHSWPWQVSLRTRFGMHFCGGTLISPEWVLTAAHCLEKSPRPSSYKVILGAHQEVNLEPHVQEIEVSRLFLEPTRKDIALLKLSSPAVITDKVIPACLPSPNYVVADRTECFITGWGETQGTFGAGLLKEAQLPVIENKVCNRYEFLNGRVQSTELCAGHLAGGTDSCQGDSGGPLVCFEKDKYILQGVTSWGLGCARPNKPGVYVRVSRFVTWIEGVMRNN

Biological target: Plasminogen (Homo sapiens, UniProt P00747)
Assay: Tested for the Inhibition of the catalytic activity of human plasmin at 25 degree C and pH 7.5.

Compound: N=C(N)c1ccccc1 [BENZAMIDINE]
- Ki: 350 µM
